Data as given in ChEMBL document CHEMBL1155134, “Structural basis for the potent calpain inhibitory activity of peptidyl alpha-ketoacids” (J Med Chem, 2008).
pKi: −log10 of the molar value.

Molecular target: T1, Calpain-1 catalytic subunit (Sus scrofa, UniProt P35750)
T1 sequence (P35750 whole entry): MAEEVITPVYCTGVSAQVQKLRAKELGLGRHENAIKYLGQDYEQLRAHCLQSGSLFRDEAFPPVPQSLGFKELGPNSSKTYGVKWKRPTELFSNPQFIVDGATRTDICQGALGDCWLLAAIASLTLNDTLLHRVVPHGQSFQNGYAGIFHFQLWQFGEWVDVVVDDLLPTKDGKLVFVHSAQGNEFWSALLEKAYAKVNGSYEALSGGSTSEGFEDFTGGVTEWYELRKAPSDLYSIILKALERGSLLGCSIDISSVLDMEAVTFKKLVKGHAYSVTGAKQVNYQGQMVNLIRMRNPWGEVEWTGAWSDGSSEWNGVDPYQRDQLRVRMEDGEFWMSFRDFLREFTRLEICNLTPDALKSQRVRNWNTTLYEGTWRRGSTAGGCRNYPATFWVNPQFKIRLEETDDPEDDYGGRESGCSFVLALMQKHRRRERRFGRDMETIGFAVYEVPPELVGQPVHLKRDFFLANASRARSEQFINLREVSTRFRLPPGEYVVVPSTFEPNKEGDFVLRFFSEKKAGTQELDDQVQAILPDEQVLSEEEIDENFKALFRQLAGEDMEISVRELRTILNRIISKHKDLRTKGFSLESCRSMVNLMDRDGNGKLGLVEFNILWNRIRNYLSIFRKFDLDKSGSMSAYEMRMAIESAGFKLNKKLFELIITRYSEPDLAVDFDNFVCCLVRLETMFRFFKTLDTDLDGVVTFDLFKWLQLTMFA
Test: Inhibition of pig erythrocyte mu-calpain by fluorometric assay

pKi: 5.67
Compound: COC(=O)C(=O)[C@H](Cc1ccccc1)NC(=O)[C@H](CC(C)C)NC(=O)CC(c1ccccc1)c1ccccc1
